{
  "source": "patent US7119100B2",
  "about": "(priority 2001, dated 2006)",
  "key": {"mice [1]": {"system": "mice", "assay": "mice 55° C. hot plate test (sc/po)", "conditions": "for hot plate test ED50 / hot plate test Max. efficacy: 55° C."}, "rats": {"system": "rats", "assay": "rat formaldehyde test"}, "rhesus monkey [2]": {"system": "rhesus monkey", "assay": "rhesus monkey tail flick test", "conditions": "n = 5"}, "[3]": {"assay": "analgesic models, po versus sc comparison"}, "mice [4]": {"system": "mice", "assay": "tail-flick test, s.c. and p.o. administration"}, "[5]": {"system": "opiate receptors of rat brain", "assay": "3H-naloxone binding, Na+ index determination", "conditions": "for IC50: 5 nmol·L^−1 3H-naloxone, rat brain membrane"}, "Wistar rats [6]": {"system": "Wistar rats", "assay": "rat 55° C. hot water bath test"}, "rhesus monkey [7]": {"system": "rhesus monkey", "assay": "substitution test in rhesus monkey self-administering morphine"}, "rhesus monkey [8]": {"system": "rhesus monkey", "assay": "self-administration testing in rhesus monkey", "conditions": "0.025–0.05 mg·kg^−1/inject"}, "mice [9]": {"system": "mice", "assay": "acetic acid writhing test"}, "heroin dependent rat": {"system": "heroin dependent rat", "assay": "substitution test in heroin dependent rat"}, "Wistar rats [10]": {"system": "Wistar rats", "assay": "self-administration testing in rat", "conditions": "I1 0.05, 0.08, 0.1 mg·kg^−1, continuous 35–40 days session"}, "Wister rats": {"system": "Wister rats", "conditions": "for loss weight: rats, naloxone"}, "Swiss mice": {"system": "Swiss mice", "assay": "conditioned place preference testing in mice", "conditions": "morphine 10, buprenorphine 0.3, I1 3 and 10 mg·kg^−1"}},
  "note": "Like-named read-outs stand apart in the source and are kept apart here.",
  "data": [
    {"smiles": "COC12CCC3(CC1C(C)(O)CC1CCCCC1)C1Cc4ccc(O)c5c4C3(CCN1CC1CC1)C2O5", "note": "(centres unmarked)", "values": [
      {"measurement": "hot plate test ED50", "setting": "mice [1]", "result": 159.1, "unit": "µg/kg"},
      {"measurement": "hot plate test Max. efficacy", "setting": "mice [1]; hydrochloride", "result": 94, "unit": "%"}
    ]},
    {"smiles": "COC12CCC3(CC1C(C)(O)CCc1cccs1)C1Cc4ccc(O)c5c4C3(CCN1CC1CCC1)C2O5", "note": "(centres unmarked)", "values": [
      {"measurement": "hot plate test ED50", "setting": "mice [1]", "result": 159, "unit": "µg/kg"},
      {"measurement": "hot plate test Max. efficacy", "setting": "mice [1]", "result": 71.2, "unit": "%"}
    ]},
    {"smiles": "COC12CCC3(CC1C(C)(O)CCc1cccs1)C1Cc4ccc(O)c5c4C3(CCN1CC1CC1)C2O5", "note": "(centres unmarked)", "values": [
      {"measurement": "formaldehyde test ED50", "setting": "rats", "result": 0.15, "unit": "mg/kg"},
      {"measurement": "formaldehyde test Max. efficacy", "setting": "rats", "result": 100.0, "unit": "%"},
      {"measurement": "hot plate test ED50", "setting": "mice [1]", "result": 860, "unit": "µg/kg"},
      {"measurement": "ED50 P.O", "setting": "mice [1]; Hot plate, p.o.", "result": 3.10, "unit": "mg/kg"},
      {"measurement": "ED50 S.C", "setting": "mice [1]; Hot plate, s.c.", "result": 0.57, "unit": "mg/kg"},
      {"measurement": "Latency tail flick (X ± SD)", "setting": "rhesus monkey [2]; 1 μg · kg^−1 Im", "result": "4.8 ± 2.1", "unit": "s"},
      {"measurement": "Latency tail flick (X ± SD)", "setting": "rhesus monkey [2]; 2 μg · kg^−1 Im", "result": "6.5 ± 3.6", "unit": "s"},
      {"measurement": "Latency tail flick (X ± SD)", "setting": "rhesus monkey [2]; 4 μg · kg^−1 Im", "result": "7.9 ± 2.5", "unit": "s"},
      {"measurement": "Latency tail flick (X ± SD)", "setting": "rhesus monkey [2]; 6 μg · kg^−1 Im", "result": "9.2 ± 3.1", "unit": "s"},
      {"measurement": "latency (X ± SD)", "setting": "rhesus monkey [2]; 6 μg · kg^−1 po", "result": "5.1 ± 1.8", "unit": "s"},
      {"measurement": "latency (X ± SD)", "setting": "rhesus monkey [2]; 12 μg · kg^−1 po", "result": "6.0 ± 1.9", "unit": "s"},
      {"measurement": "latency (X ± SD)", "setting": "rhesus monkey [2]; 24 μg · kg^−1 po", "result": "6.7 ± 2.3", "unit": "s"},
      {"measurement": "latency (X ± SD)", "setting": "rhesus monkey [2]; 48 μg · kg^−1 po", "result": "5.7 ± 0.5", "unit": "s"},
      {"measurement": "range of effective dose", "setting": "[3]; in two analgesic models", "result": "1 to 3", "unit": "mg/kg"},
      {"measurement": "bioavailability", "setting": "[3]; inferred from ED50 po/ED50 sc ratios", "result": "higher than that of buprenorphine"},
      {"measurement": "ED50 P.O", "setting": "mice [4]; p.o.", "result": 2.61, "unit": "mg/kg"},
      {"measurement": "ED50 S.C", "setting": "mice [4]; s.c.", "result": 1.75, "unit": "mg/kg"},
      {"measurement": "affinity to opiate receptors relative to morphine", "setting": "[5]; 3H-naloxone binding", "result": 100, "unit": "times"},
      {"measurement": "Na^+ index", "setting": "[5]; ratio of IC50 in presence of NaCl to IC50 in absence", "result": 0.42},
      {"measurement": "IC50", "setting": "[5]; read-out: IC50 Free of Na^+, no NaCl", "result": 0.19, "unit": "nM"},
      {"measurement": "IC50", "setting": "[5]; read-out: IC50 Presence of Na^+, 100 nmol·L^−1 NaCl", "result": 0.08, "unit": "nM"},
      {"measurement": "hot water bath test ED50", "setting": "Wistar rats [6]", "result": 3.48, "unit": "mg/kg"},
      {"measurement": "hot water bath test Max. efficacy", "setting": "Wistar rats [6]", "result": 79.3, "unit": "%"},
      {"measurement": "self-administration in replace of morphine or buprenorphine", "setting": "rhesus monkey [7]; I1 0.05 mg·kg^−1/inject", "result": "could not maintain"},
      {"measurement": "self-administration in the place of morphine", "setting": "rhesus monkey [7]; I1 0.025, buprenorphine 0.05 mg·kg^−1/inject, morphine 0.25 mg/kg/inject", "result": "could continue self-administration"},
      {"measurement": "development of self-administration", "setting": "rhesus monkey [8]", "result": "couldn't induce the development of self-administration"},
      {"measurement": "acetic acid writhing test ED50", "setting": "mice [9]", "result": 116, "unit": "µg/kg"},
      {"measurement": "ED50 P.O", "setting": "mice [9]; Acetic Writhing, p.o.", "result": 0.64, "unit": "mg/kg"},
      {"measurement": "ED50 S.C", "setting": "mice [9]; Acetic Writhing, s.c.", "result": 0.08, "unit": "mg/kg"},
      {"measurement": "acetic acid writhing test Max. efficacy", "setting": "mice [9]; hydrochloride", "result": 100, "unit": "%"},
      {"measurement": "self-administration after substitution for heroin", "setting": "heroin dependent rat", "result": "Self-administration could continue"},
      {"measurement": "daily injections", "setting": "Wistar rats [10]", "result": "< 10"},
      {"measurement": "induction of self-administration", "setting": "Wistar rats [10]", "result": "couldn't induce self-administration"},
      {"measurement": "number of total abstinence signs compared with saline group", "setting": "Wister rats; morphine 30×Tid×7d, 30×Tid×14d, naloxone-precipitated", "result": "no significant differences"},
      {"measurement": "loss weight", "setting": "Wister rats; Tid × 7d: morphine 30, buprenorphine 5, I1 3 mg·kg^−1", "result": "0.4 ± 0.6", "unit": "g"},
      {"measurement": "loss weight", "setting": "Wister rats; Tid × 14d: morphine 30, buprenorphine 5, I1 3 mg·kg^−1", "result": "2.0 ± 1.9", "unit": "g"},
      {"measurement": "induction of Conditioned Place Preference", "setting": "Swiss mice", "result": "induced significant Conditioned Place Preference"}
    ]}
  ]
}
